{"source": "patent US20210094920A1", "about": "“NR2B LIGANDS; METHOD OF MAKING; AND USE THEREOF” (THE UNITED STATES OF AMERICA, AS REPRESENTED BY THE …, priority 2018, published 2021)", "molecular_target": "NR2B subunits in NMDA receptors (Rattus norvegicus, UniProt P35439+Q00960)", "assay": "PET imaging of brain in rats (baseline, preblock, displacement)", "conditions": "i.v. at 10 min after radioligand injection"}
{"smiles": "C[C@@H](CN1CCC(Cc2ccccc2)CC1)[C@@H](O)c1ccc(O)cc1", "note": "[Ro 25 6981, 4-[(1R,2S)-3-(4-Benzylpiperidin-1-yl)-1-hydroxy-2-methylpropyl]phenol, reference compound]", "values": [{"measurement": "effect of displacement on brain radioactivity washout", "setting": "radioligand [^11C]NR2B-Me, 0.01-3 mg/kg", "value": "accelerated brain radioactivity washout in a dose-dependent manner"}, {"measurement": "effect of displacement on brain radioactivity washout", "setting": "radioligand [^11C]NR2B-MeI, 0.01-1.25 mg/kg", "value": "accelerated brain radioactivity washout in a dose-dependent manner"}]}
